Paper PMC6559209

Biological target: lactate dehydrogenase (LDH)
Experiment: MST; 10 mM H2O2
Conditions: domain or fragment

- Kd: 1860 nM
Substance: YlHD, hydrophilic domain of the Yarrowia lipolytica group 3 LEA protein
